Tested on: TNP-LSTRA syngeneic tumor cells
Type: cell-based, mouse
Details: TNP-LSTRA syngeneic tumor cells as target cells

CCCC(=O)OC[C@H]1OC(N(C(C)=O)[C@@H](C)C(=O)N[C@H](CCC(=O)O)C(N)=O)[C@H](N)[C@@H](O[C@H](C)C(=O)O)[C@@H]1O (stereo partly drawn) [Example L4-MDP, 6-O-butyryl-N-acetylmuramyl-L-alanyl-D-isoglutamine]
Existence of L4-MDP-reactive helper T cells in spleen cells of BCG-immunized mouse: similarly proved

Source: US4681856A, “Muramyldipeptide active ester derivatives” (Toshiyuki Hamaoka Daiichi Seiyaku Co., Ltd., priority 1983, dated 1987)
